Literature values as cited in article PMC10363981, “Optimizing the enzymatic release of MMAE from isoDGR-based small molecule drug conjugate by incorporation of a GPLG-PABC enzymatically cleavable linker” (Frontiers in Pharmacology, 2023).

Tested on: U87MG human glioblastoma cancer cell lines
Conditions: ref Dias et al., 2019, cited from earlier work

Substance: cyclo[DKP-isoDGR]-PEG4-VA-PABC-MMAE (head to tail) [compound 1]
- loss of potency of the conjugate compared to the free drug (U87MG): two orders of magnitude
- IC50 on U87MG human glioblastoma cancer cell lines: low nanomolar
